Test results taken from the CheMixHub viscosity set.

Test: xn = mol fraction of the nth substance listed
Conditions: 100 kPa

CCC[N+](CCC)(CCC)CCC.F[B-](F)(F)F + CC#N
viscosity [mPa·s]
Conditions | x1 = 0.004109 | x1 = 0.008148 | x1 = 0.01217 | x1 = 0.01616 | x1 = 0.02022 | x1 = 0.02407 | x1 = 0.02797 | x1 = 0.03172 | x1 = 0.03563 | x1 = 0.03955
293.15 K | 0.418 | 0.439 | 0.458 | 0.483 | 0.501 | 0.526 | 0.545 | 0.569 | 0.591 | 0.617
298.15 K | 0.399 | 0.419 | 0.438 | 0.458 | 0.478 | 0.498 | 0.52 | 0.541 | 0.563 | 0.586
303.15 K | 0.381 | 0.398 | 0.416 | 0.438 | 0.454 | 0.475 | 0.491 | 0.512 | 0.531 | 0.554
308.15 K | 0.365 | 0.38 | 0.397 | 0.419 | 0.433 | 0.454 | 0.467 | 0.487 | 0.505 | 0.526
313.15 K | 0.35 | 0.363 | 0.38 | 0.403 | 0.413 | 0.433 | 0.445 | 0.464 | 0.481 | 0.5
318.15 K | 0.336 | 0.348 | 0.364 | 0.386 | 0.395 | 0.415 | 0.425 | 0.443 | 0.459 | 0.478
323.15 K | 0.323 | 0.334 | 0.349 | 0.37 | 0.379 | 0.398 | 0.407 | 0.42 | 0.437 | 0.456
